The entries are a selection whose mix differs from that of the whole data set. Active and inactive are the calls of the source.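 How the source made its calls: active means mean inhibition across replicates at least about 35%, with every replicate also reaching that limit (limit read from the data); inconclusive means only one of the two criteria met; inactive means neither criterion met.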

Amino acid sequences for entries named in this document (tags omitted). A change or cut given only in a name is not applied to a line headed by its entry.
UniProt P55212: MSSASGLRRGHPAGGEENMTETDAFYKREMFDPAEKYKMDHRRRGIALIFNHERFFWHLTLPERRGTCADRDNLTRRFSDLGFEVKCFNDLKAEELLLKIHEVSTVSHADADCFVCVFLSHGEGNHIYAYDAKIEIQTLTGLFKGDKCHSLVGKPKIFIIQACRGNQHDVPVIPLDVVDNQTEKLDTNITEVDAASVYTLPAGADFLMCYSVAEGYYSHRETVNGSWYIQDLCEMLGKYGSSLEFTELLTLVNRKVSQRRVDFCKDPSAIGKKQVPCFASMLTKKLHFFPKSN

For 99 compounds, inhibition results are on record in PubChem BioAssay AID686996 (Broad Institute, 2013).

This experiment deals with Caspase-6 (Homo sapiens) (UniProt P55212). The experiment is described as follows: human caspase-6 inhibitors, primary screen, biochemical, VEID-R110 fluorescence, single point, set 2 (AID 686996).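 Further: 0% = median of neutral control wells and 100% = no fluorescence left.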 The note with it: purified caspase-6, Z-VEID-R110 cleavage fluorescence; at 12.5 µM; hits give high values.
As to `O=C(OC1CN2CCC1CC2)c1ccc(Cl)cc1` (centres undefined), the inhibition was inactive: -10.5%.
Next, `CS(=O)(=O)c1ccc(Cl)c(NC(=O)COC(=O)C(O)(c2ccccc2)c2ccccc2)c1`: inactive: 0.295%.
With `COc1cc(C(=O)NCC2(N3CCOCC3)CCCCC2)cc(Cl)c1OC(C)C` the figure was inactive: 0.587%; with `O=[As](O)(O)c1cccnc1`, inactive: 2.1%; with `O=[As](O)(c1cccc(O)c1)c1cccc(O)c1`, inactive: 0.182%.
With `Nc1cccc2c([As](=O)(O)O)cccc12` the figure was active: 57.4%; with `Cc1ccc(NCCc2c([N+](=O)[O-])cc([N+](=O)[O-])cc2[N+](=O)[O-])cc1`, inactive: 0.393%.
As to `CCCOP(=S)(Nc1nc(N)cc(=O)[nH]1)OCCC`, the inhibition was inactive: 0.563%.
With `CCOP(=O)(Nc1cccc2ccccc12)OCC` the figure was inactive: -2.23%; with `O=P(Nc1nccs1)(Oc1ccccc1)Oc1ccccc1`, inactive: -0.481%; with `CCOP1(=S)c2c(C)nn(CCC#N)c2N=C(c2ccccc2F)N1C` (centres undefined), inactive: 3.49%.
Next, `Nc1ccccc1[As](=O)(O)c1ccccc1`: inactive: 4.61%; `O=C(O)COc1ccc([As](=O)(O)O)cc1[N+](=O)[O-]`: inactive: -7.02%; `NC(=O)Nc1ccc([As](=O)(O)O)cc1`: inactive: -0.601%.
With `CCOP1(=S)c2c(C)nn(CCC#N)c2N=C(c2ccc(F)cc2)N1C` (centres undefined) the figure was inactive: 1.18%.
Take `CN(C(=O)Cc1ccccc1)[C@@H]1CC[C@]2(CCCO2)C[C@H]1N1CCCC1`: the inhibition was inactive: -2.2%.
Consider `N#CCCN(C(=O)COC(=O)C(O)(c1ccccc1)c1ccccc1)c1ccc(F)cc1`, for which the inhibition is inactive: 1.98%.
Next, `CN(C(=O)Cc1ccc(Cl)c(Cl)c1)[C@H]1CC[C@@]2(CCCO2)C[C@@H]1N1CCCC1`: inactive: -1.94%; `CN(C)C(=O)c1cc([N+](=O)[O-])cc2c1-c1c(cc([N+](=O)[O-])cc1[N+](=O)[O-])C2=O`: inactive: 2.94%; `CC1CCC(C(C)C)C(OP(=O)(Nc2ccccn2)c2ccccc2)C1` (centres undefined): inactive: -0.512%.
Next, `Cc1ccc(C(=O)OC2CN3CCC2CC3)cc1` (centres undefined): inactive: -4.88%; `CN(C)C1(CNC(=O)c2ccc(S(C)(=O)=O)cc2)CCCCC1`: inactive: -4.04%; `CCCC1OP(=O)(Nc2ccccc2)OCC1CC` (centres undefined): inactive: 2.99%.
With `O=C(/C=C/c1ccccc1)OC1CN2CCC1CC2` (centres undefined) the figure was inactive: -0.647%.
Take `Cc1ccc(S(=O)(=O)N(CCCN)CCCc2c(C)nc(N)[nH]c2=O)cc1`: the inhibition is inactive: -0.151%.
For `Nc1cccc([As](=O)(O)c2ccccc2)c1`, the inhibition is inactive: 3.33%.
With `NS(=O)(=O)c1cccc(NC(=O)COC(=O)C(O)(c2ccccc2)c2ccccc2)c1` the figure was inactive: 1.78%.
With `O=[As](O)(c1cccs1)c1cccs1` the figure was inactive: 1.72%; with `CCC1=CC2Cc3nc4ccc(Cl)cc4c(N)c3C(C1)C2` (centres undefined), inactive: 4.04%; with `CCOP(=O)(Nc1ccc(C)cn1)OCC`, inactive: 0.866%.
With `CC(C)(C)C(=O)NC(Sc1ncccn1)C(Cl)(Cl)Cl` (centres undefined) the figure was inactive: -2.5%; with `O=P1(N(CCCl)CCCl)NCCC(C(F)(F)F)O1` (centres undefined), inactive: -6.42%.
As for `COc1ccccc1CNC(=O)COC(=O)C(O)(c1ccccc1)c1ccccc1`, the inhibition was inactive: -4.13%.
`CN(C(=O)Cc1ccc(Cl)c(Cl)c1)C1CCCC[C@@H]1N1CCCC1` (some centres undefined): the inhibition is inactive: -8.47%.
With `CC(C)/C=N\N=C(\N)N[N+](=O)[O-]` the figure was inactive: 0.311%.
With `CN(C(=O)Cc1ccc(Cl)c(Cl)c1)[C@@H]1CCCC[C@H]1N1CCCC1` the figure was inactive: 5.43%.
Next, `COC(=O)C1(C)COP(=O)(N2CCCC2)OC1` (centres undefined): inactive: 0.775%; `COP1(=S)c2c(C)nn(CCC#N)c2N=C(c2ccc(F)cc2)N1C` (centres undefined): inactive: 1.45%; `O=C(O)C(=O)c1ccc(N(CCCl)CCCl)cc1`: inactive: 1.52%.
Take `O=C(Nc1ccncc1[N+](=O)[O-])c1ccc([N+](=O)[O-])cc1[N+](=O)[O-]`: the inhibition was inactive: 7.55%.
With `O=C(OC1CN2CCC1CC2)c1cccc([N+](=O)[O-])c1` (centres undefined) the figure was inactive: -7.8%; with `CCOC(=O)c1ccc(NC(=O)C(C)(CCl)SC)cc1` (centres undefined), inactive: -3.36%.
Next, `CCOC(=O)Nc1ccc([As](=O)(O)O)c(O)c1`: inactive: 4.93%; `O=C(O)C(O)c1ccc(N(CCCl)CCCl)cc1` (centres undefined): inactive: -0.664%.
Regarding `CC1CCNP(=O)(N(CCCl)CCCl)O1` (centres undefined), the inhibition is inactive: -48.5%.
Next, `COP(=O)(OC)N1CC1c1ccccc1` (centres undefined): inactive: 0.104%.
Next, `CCCCOc1ccc(C(=O)NCC2(N3CCCCC3)CCCCC2)cc1OC`: inactive: 0.839%; `CCOC(=O)Nc1cccc([As](=O)(O)O)c1`: inactive: -3.74%.
With `O=P(Nc1ccccn1)(c1cccc2ccccc12)c1cccc2ccccc12` the figure was inactive: -1.85%; with `Cc1cc(SC(NC=O)C(Cl)(Cl)Cl)ncn1` (centres undefined), inactive: 4.76%; with `O=[N+]([O-])c1ccc(Nc2ccc(Oc3ccc([N+](=O)[O-])cc3[N+](=O)[O-])cc2)c([N+](=O)[O-])c1`, inactive: 1.86%.
In the case of `COc1cc(C(=O)NCC2(N3CCOCC3)CCCCC2)ccc1OCC(C)C`, the inhibition was inactive: 3.5%.
In the case of `O=[N+]([O-])c1ccc(-c2cc([N+](=O)[O-])c(O)c([N+](=O)[O-])c2)cc1`, the inhibition is inactive: 21.5%.
With `O=[As](O)(c1ccc(O)cc1)c1ccccc1O` the figure was inactive: 12.1%.
Next, `C[As](=O)(O)c1cccc(C(=O)O)c1`: inactive: -0.409%; `[N-]=[N+]=NC1CCCCC1NC(=O)c1cc([N+](=O)[O-])cc([N+](=O)[O-])c1` (centres undefined): inactive: 2.52%; `Cc1ccc(OP(=O)(Nc2ccc([N+](=O)[O-])cn2)Oc2ccc(C)cc2)cc1`: inactive: -3.02%.
With `Cc1ccc2nc3c(c(C)c2c1)CC(C(Cl)Cl)S3` (centres undefined) the figure was inactive: -2.61%; with `CC(C)c1ccc(OP(=O)(Nc2ccccn2)Oc2ccccc2F)cc1` (centres undefined), inactive: 1.8%; with `COC(=O)C1(C)COP(=O)(N2CCCCCC2)OC1` (centres undefined), inactive: -2.77%.
Regarding `O=C(OC1CN2CCC1CC2)c1cccc2[nH]cnc12` (centres undefined), the inhibition is inactive: -14.6%.
Next, `CC(C)NC(=O)NP(=O)(Oc1ccccc1)Oc1ccccc1`: inactive: -1.57%.
With `Cc1c2c(nc3ccccc13)SC(C(Cl)Cl)C2` (centres undefined) the figure was inactive: 1.91%; with `Cc1cc(=O)[nH]c(N[N+](=O)[O-])n1`, inactive: 1.73%.
Next, `COc1ccc(CN2/C(=N\P(=O)(Oc3ccccc3)Oc3ccccc3)Cc3ccccc3C2C2CC2)cc1` (centres undefined): inactive: 0.489%; `O=P1(N(CCCl)CCCl)OCCCN1CCCl` (centres undefined): inactive: -6.87%; `O=P1(N(CCCl)CCCl)Nc2ccccc2N1`: inactive: -3.72%.
Turning to `COc1cc(I)ccc1[As](=O)(O)O`, the inhibition was inactive: -0.589%.
With `COc1ccc2nc(NP(=O)(c3ccccc3)c3ccccc3)sc2c1` the figure was inactive: -5.34%; with `O=[N+]([O-])c1cc(Oc2ccc([N+](=O)[O-])cc2C(F)(F)F)cc([N+](=O)[O-])c1`, inactive: -1.43%; with `COc1ccc(N/C(=N/P(=O)(N2CCOCC2)N2CCOCC2)N2CCOCC2)cc1`, inactive: -4.68%.
With `Cc1ccc(N/C(=N/P(=O)(N2CCOCC2)N2CCOCC2)N2CCOCC2)cc1` the figure was inactive: 2.45%; with `CN(C(=O)Cc1ccc(Cl)c(Cl)c1)[C@H]1CCCC[C@H]1N1CCCC1`, inactive: -8.6%; with `NC(=O)c1cc([N+](=O)[O-])cc([N+](=O)[O-])c1N`, inactive: 2.11%.
Next, `Clc1ccc(Cl)c(NC2=NCC(CBr)S2)c1` (centres undefined): inactive: 1.21%; `Cc1ccc(OP(=O)(Nc2nccs2)Oc2ccc(C)cc2)cc1`: inactive: -0.606%; `COc1ccccc1OP(=O)(Nc1ccc(C)cn1)Oc1ccccc1OC`: inactive: -1.55%.
`O=C(NC(Sc1ccncn1)C(Cl)(Cl)Cl)c1ccccc1` (centres undefined): the inhibition is inactive: 3.93%.
With `CC(C)CC(=O)NC(Sc1ccc(Cl)cc1)C(Cl)(Cl)Cl` (centres undefined) the figure was inactive: -5.86%; with `Nc1cc(N)c2nonc2c1[N+](=O)[O-]`, inactive: 7.31%; with `CN(C)P(=O)(N(C)C)n1c(Nc2ccccc2)nnc1-c1ccccc1`, inactive: 1.83%.
On to `O=P(Nc1nc2ccc(Cl)cc2s1)(c1ccccc1)c1ccccc1`, for which the inhibition was inactive: 1.6%.
Next, `CCCC1OP(N)(=O)OCC1CC` (centres undefined): inactive: -1.38%; `O=C(O)c1ccccc1[As](=O)(O)O`: inactive: 2.77%.
`CC(=O)Nc1ccc([As](=O)(O)O)cc1`: the inhibition is inactive: 2.15%.
Next, `CCn1c(=O)n(C2CCN(CC3CCCCCCC3)C[C@H]2CO)c2ccccc21` (some centres undefined): inactive: 6.77%; `Cc1ccc(NP(=O)(Oc2ccccc2F)Oc2ccccc2F)nc1`: inactive: 0.288%; `CN(C(=O)Cc1ccc(Cl)c(Cl)c1)[C@H]1CCCC[C@@H]1N1CCCC1`: inactive: -2.92%.
As for `Nc1cccc2ccc([As](=O)(O)O)cc12`, the inhibition is active: 50.3%.
Next, `CN(C(=O)Cc1ccccc1)C1CC[C@@]2(CCCO2)C[C@@H]1N1CCCC1` (some centres undefined): inactive: 5.35%; `O=P1(N(CCCl)CCCl)OCCCS1` (centres undefined): inactive: -5.87%; `O=C(Nc1cc([As](=O)(O)O)ccc1O)c1ccccc1`: inactive: 7.06%.
Regarding `O=[N+]([O-])c1ncn(CCn2ncnc2[N+](=O)[O-])n1`, the inhibition is inactive: 0.706%.
With `CC(C)(C)C(=O)NC(Sc1ccncn1)C(Cl)(Cl)Cl` (centres undefined) the figure was inactive: 3.02%; with `O=C(O)CNc1ccc([As](=O)(O)O)cc1`, inactive: -0.137%; with `O=[N+]([O-])c1cccc(NC2=NCC(CBr)S2)c1` (centres undefined), inactive: -2.85%.
Next, `COC(=O)C1(C)COP(=O)(Nc2ccccc2)OC1` (centres undefined): inactive: -0.447%; `COc1ccc(C2=NCC(CBr)S2)cc1` (centres undefined): inactive: -0.025%; `O=[N+]([O-])c1cc([N+](=O)[O-])c(CCNc2ccccc2)c([N+](=O)[O-])c1`: inactive: 2.11%.
